Tested on: yeast infections of the vagina
Conditions: suppository, third group

Which results are given for `Clc1ccccc1C(c1ccccc1)(c1ccccc1)n1ccnc1` [clotrimazole]?
irritation: a number of these patients complain of irritation; reddening of the vagina (in patients complaining of irritation): a significant reddening of the vagina is present

Reference: patent US5364879A, “Medical uses of trioxolane and diperoxide compounds” (Cliveden Ltd., priority 1994, dated 1994)
